The record followed here is ChEMBL document CHEMBL2401681 (Bioorg Med Chem Lett, 2013).

For this experiment, the species on record is Homo sapiens. Put plainly: Selectivity ratio of IC50 for human Gal4-ERalpha to IC50 for human Gal4-ERbeta.

With `CCC(CC)(c1ccc(N)c(C)c1)c1ccc(O)c(C)c1`, the Ratio IC50 is 2.
